According to patent US10391151B2, “Dilute surfactant or isolated surfactant protein solution for the reduction of surface tension in the lung” (The Trustees of the Stevens Institute of Technology, priority 2015, dated 2019):

How the values were obtained:
[1] = Surface tension in a liquid drop in vitro (Method 4); assay type: physicochemical
Description: Method 4. Surface tension in a liquid drop. […] Liquid pressure in the drop is determined by servo-nulling pressure measurement; interfacial radius of curvature is determined by confocal microscopy; and air pressure is known to be atmospheric. Surface tension is calculated according to the Laplace relation and found to be 72±2 mN/m for normal saline, as expected.
4. surface tension determination in a normal saline drop containing known quantities of additional solutes and no lipids other than any that are added to it.

[2] = system: surface alveoli of the isolated adult rat lung; test: Surface tension determination in alveoli of the isolated adult rat lung (Method 1); details: adult rat lung (FIGS. 1A-1D, injury score and surface tension)
Description: Method 1. Surface tension determination in the adult rat lung. In the isolated adult rat lung, a surface alveolus is micropunctured and a test solution, labeled with a low concentration of fluorescent dye verified not to alter surface tension, is instilled. In flooded alveoli, the air-liquid interface forms a meniscus, at which surface tension is determined as follows. Alveolar air pressure is determined with a transducer at the trachea of the constantly-inflated lung. Alveolar liquid phase pressure is determined by servo-nulling pressure measurement. Meniscus radius of curvature is determined by confocal microscopy. Surface tension is calculated according to the Lapalce relation.
1. direct surface tension determination in surface alveoli of the isolated adult rat lung, which contains native lung surfactant, following alveolar instillation of a test solution;

albumin: most abundant plasma protein, 66 kD; negatively charged facilitating solute
Optimal albumin concentration for the facilitation of 1% SURVANTA ([1]; 3 μl normal saline drops (FIG. 4)): ~5% | Albumin concentration range that facilitates 1 vol % SURVANTA (upper end) ([1]; in vitro): < 10 vol % | Facilitation of the surface activity of SURVANTA ([1]; in vitro): required to facilitate | Albumin concentrations that facilitate the surface activity of 1 vol % SURVANTA solution [2]: 3-11 w/v %
